pIC50: −log10 of the molar value.
How the values were obtained:
[1] = biological target: T1, Indoleamine 2,3-dioxygenase 1 (Homo sapiens, UniProt P14902); experiment: Inhibition of IDO1 in IFN-gamma-stimulated human HeLa cells assessed as decrease in kynurenine levels after 48 hrs; assay type: cell-based
[2] = biological target: T1, Indoleamine 2,3-dioxygenase 1; experiment: Inhibition of full-length human IDO1 expressed in Escherichia coli Rosetta (DE3) using L-Trp substrate by HPLC analysis

Amino acid sequences for entries named in this document (tags omitted).
UniProt P14902, whole entry: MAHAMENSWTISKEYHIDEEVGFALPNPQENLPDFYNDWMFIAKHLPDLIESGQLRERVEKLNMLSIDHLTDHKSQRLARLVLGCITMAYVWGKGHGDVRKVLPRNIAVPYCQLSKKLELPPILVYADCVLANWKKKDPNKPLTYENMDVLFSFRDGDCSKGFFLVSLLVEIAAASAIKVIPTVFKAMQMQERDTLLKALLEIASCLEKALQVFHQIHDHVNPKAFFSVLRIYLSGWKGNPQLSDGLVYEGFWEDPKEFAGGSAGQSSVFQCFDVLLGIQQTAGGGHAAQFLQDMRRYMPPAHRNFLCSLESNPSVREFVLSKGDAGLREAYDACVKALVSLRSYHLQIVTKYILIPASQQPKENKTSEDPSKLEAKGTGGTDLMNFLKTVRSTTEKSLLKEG

A pIC50 [1] of 7.09 and a pIC50 [2] of 7.28 were found for `Oc1ccc(Cl)cc1-c1c[nH]nn1` in this work.

From ChEMBL document CHEMBL4414585, “Inhibition Mechanisms of Indoleamine 2,3-Dioxygenase 1 (IDO1)” (J Med Chem, 2019)
